Literature values, collected in US5756501A, “Saturated and unsaturated pyridazino[4,5-B] indolizines useful as antidementia agents” (American Home Products Corporation, priority 1996, dated 1998).

Test system: m1 receptors
Conditions: cited from earlier work

C[N+](C)(C)CCOC(N)=O [carbachol]
activation of m1 receptors: able to fully activate m1 receptors
